Data from patent US7833722B2, “Ligands for G protein-coupled receptor protein and use thereof” (Takeda Pharmaceutical Company Limited, priority 2004, dated 2010).

Chains of the proteins cited; added tags and fusions are not shown.
UniProt O14842, whole entry: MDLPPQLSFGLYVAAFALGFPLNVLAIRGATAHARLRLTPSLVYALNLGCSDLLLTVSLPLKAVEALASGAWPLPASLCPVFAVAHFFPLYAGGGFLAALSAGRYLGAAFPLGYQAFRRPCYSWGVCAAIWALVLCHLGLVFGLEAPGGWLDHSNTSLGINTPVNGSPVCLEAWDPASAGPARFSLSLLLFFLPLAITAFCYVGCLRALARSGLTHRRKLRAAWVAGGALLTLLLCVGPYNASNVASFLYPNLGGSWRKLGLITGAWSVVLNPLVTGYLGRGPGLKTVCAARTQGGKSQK

Biological target: T1, GPR40 (Homo sapiens, UniProt O14842)
T1 construct: expressed in transfected cells; host or cells: GPR40 expression cells
Test: SRE-luciferase reporter assay in GPR40 expression cells used for control
Format: cell-based
Settings: PBG

luciferase activity in the GPR40 expression cells used for control (in words): did not show any significant increase
Structure (SMILES): NCc1[nH]cc(CCC(=O)O)c1CC(=O)O [PBG, porphobilinogen]
